Data published in patent publication US10669268B2, “Bicyclic derivatives” (Hoffmann-La Roche Inc., priority 2012, dated 2020).

Each molecule was assayed against ATX (human His-tagged) (Homo sapiens (Human), UniProt Q13822) (assay: Human ATX enzyme inhibition assay (fluorescence quenching, MR121 substrate)). Conditions: 30 nM ATX, 1 μM MR121 substrate, 30° C., pH 8.0.
Assay type: biochemical
In the case of `O=C(CCc1ccc(OC(F)(F)F)cc1)N1C[C@@H]2CN(C(=O)N3CCc4[nH]nnc4C3)C[C@H]2C1`, the IC50 is reported as 7 nM.
In the case of `O=C(CCc1ccc(OC(F)(F)F)cc1)N1C[C@@H]2CN(C(=O)[C@@H]3CCc4[nH]nnc4C3)C[C@H]2C1`, the IC50 is reported as 7 nM.
With `O=C(/C=C/c1ccc(OC(F)(F)F)cc1)N1C[C@@H]2CN(C(=O)N3CCc4[nH]nnc4C3)C[C@H]2C1` the IC50 was 3 nM.
Work on `O=C(/C=C/c1ccc(OC(F)(F)F)cc1)N1C[C@@H]2CN(C(=O)N3CCc4[nH]nnc4C3)C[C@@H]2C1` yielded an IC50 of 39 nM.
